Measurements as given in patent publication US7803788B2, “Prodrugs of phosphonate nucoleotide analogues” (Gilead Sciences, Inc., priority 2000, dated 2010).

How the values were obtained:
[1] = Stability in human plasma; type: in vitro ADME; conditions: 37° C., TBS pH 7.5
[2] = system: PLCE (porcine liver carboxyesterase); test: PLCE hydrolysis; type: in vitro ADME; conditions: 37° C., PBS pH 7.4

For CC(C)OC(=O)[C@H](C)N[P@](=O)(CO[C@H](C)Cn1cnc2c(N)ncnc21)Oc1ccccc1 [compound 3], the “Human Plasma Stability (HP) product” value [1] was “Met. Y” and the PLCE hydrolysis product [2] was “Met. X & PMPA”.
